# scFv variants of Ab-14 (light chain) against a SARS-CoV-2 spike peptide

Data: MIT Lincoln Laboratory AlphaSeq set, Li et al. 2023, doi:10.1038/s41467-023-39022-2, as distributed in FLAb.

Binding partner: SARS-CoV-2 spike HR2 peptide, sequence PDVDLGDISGINAS.

Parent: Ab-14, a human scFv built as VH, a 15-residue (Gly4Ser)3 linker, VL. Only the CDRs of the light chain vary.
VH: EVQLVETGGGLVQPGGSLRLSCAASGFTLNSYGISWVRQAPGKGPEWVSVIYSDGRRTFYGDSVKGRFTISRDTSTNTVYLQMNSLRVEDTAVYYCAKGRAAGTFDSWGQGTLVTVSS
VL: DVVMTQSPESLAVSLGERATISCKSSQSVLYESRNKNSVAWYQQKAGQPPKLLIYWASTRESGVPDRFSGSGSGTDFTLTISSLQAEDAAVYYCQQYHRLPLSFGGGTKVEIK

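Designed CDR sequences, proposed from the first random library and measured here. Several design methods are mixed in this list. Affinity was read by AlphaSeq, a pooled yeast mating assay with surface-displayed partners. The frequency of each diploid, read from paired DNA barcodes, reflects how well the two displayed proteins bind. The ratio of observed to expected reads was calibrated, replicate by replicate, on BCL2-family standards whose Kd was known from biolayer interferometry. Mating was done six times.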

The parent's light chain CDRs are KSSQSVLYESRNKNSVA, WASTRES, QQYHRLPLS; each variant's own CDRs replace them letter for letter. Affinities are written as log10 Kd with Kd in nM; a lower number is a better binder. Replicates are averaged; those with no signal do not enter the mean. An entry "nd" has no value in the source: the pair was not observed among the diploids in that replicate. This suggests poor binding but is not conclusive.

For MMSQVWGLGQRQRNNVA, QTSTREP, QQYDRLPLI, the assay gave 0.78, 0.50, 0.51, 0.47, 0.37, 0.42 (mean 0.51).
For KSSQSVIYEMRNKNSVA, DGSTRES, YQYHRLPLS, the assay gave 2.08, 0.89, 0.68, 0.51, 0.81, 1.80 (mean 1.13).
For HVSSMDMNDGGIKKSVA, DDKETER, QQYMRLPLS, the assay gave 1.09, 1.47, 1.17, 0.97, 1.47, 2.57 (mean 1.46).
For TLLMGPTEARKDKHNIA, DMSEREE, QQYHLLPLI, the assay gave 0.47, 1.04, 0.75, 0.11, 0.63, 0.93 (mean 0.65).
For HMNKFMSEIGGARNSIA, GADHLAQ, QHYHRLPLS, the assay gave 1.35, 1.06, 1.07, 0.90, 1.10, 1.29 (mean 1.13).
For KISGLSNHQSSVSNNVA, ENVTRVQ, QQYFRLPLA, the assay gave 1.17, 1.42, 1.38, 1.24, 1.29, 1.67 (mean 1.36).
For TLYGLSMSMSKNKNNVA, EMSTREK, QQYDRLPLI, the assay gave 1.03, 0.47, 0.62, 0.66, 0.72, 0.94 (mean 0.74).
For HIDIINRGEDMKQDPIA, QADHREQ, QQYFHLPLA, the assay gave 0.43, 0.77, 0.24, 0.48, 0.47, 1.19 (mean 0.60).
For MVSNLMLWGLHTKNSIA, EAQTRIN, QQYDRLPLF, the assay gave 1.67, 1.89, 0.78, 1.17, 0.79, 1.60 (mean 1.32).
For TVSQVHGMLSHNKNSVA, DMNTRGS, QQYDRLPLS, the assay gave 0.75, nd, 0.29, 0.13, -0.55, 1.41 (mean 0.40).
For KVSEMMAFLQSNRNNVA, DNSTRGS, QQYHRLPLS, the assay gave 1.34, 1.33, 0.92, 0.92, 0.29, 0.89 (mean 0.95).
For KSSQSHLYESRNKNSVA, SASTRES, QQYHRLPLS, the assay gave 1.22, 1.79, 0.94, 1.49, 1.73, 0.68 (mean 1.31).
For KSSQSVLYESRNKNSVA, WASDRES, QQYHRLPLS, the assay gave nd, nd, nd, nd, nd, nd.
For TIPTLMGHVSKHTNNVA, DMDTRGD, QQYNRLPLS, the assay gave 0.20, 0.38, 0.09, -0.16, -0.05, 0.08 (mean 0.09).
For KMSQEDMMLSRNWNSVA, QASTREQ, QQYHRLPLS, the assay gave 0.03, -0.11, -0.26, -0.19, -0.12, -0.03 (mean -0.11).
For KSSISYLYGSRNKNSVA, AASTRES, QQYHRLPLS, the assay gave 0.45, 0.30, 0.36, 0.27, 0.58, 0.73 (mean 0.45).
For KFSQSVLYESRNTNSVA, WASTRES, QQYHRLPLS, the assay gave nd, 2.48, 2.24, 2.56, nd, 2.68 (mean 2.49).
For KLMMFMQEIGCMKNNIA, NLEMGAR, QQYAQLPLV, the assay gave nd, nd, nd, nd, nd, nd.
For KLMQSSLYDSRNKNSVA, NASTREW, QQYHRLPLS, the assay gave 0.17, -0.07, -0.01, -0.22, 0.04, 0.03 (mean -0.01).
For HITYGMYVAGRHSSSIA, QAETRAK, QQYDRLPLS, the assay gave 1.09, 0.55, 0.73, 0.84, 0.53, 0.63 (mean 0.73).

Further variants, results first:

0.37, 0.43, 0.44, 0.33, 0.31, 0.79 (mean 0.45): KLSQDDWYESRNCNSVA, QASTREQ, QQYHRLPLS.
nd, nd, nd, nd, nd, nd: KSSQSVLAESVNKNSVA, WASTRES, QQYHRLHLS.
1.63, 1.69, 1.55, 1.63, 1.94, 1.78 (mean 1.70): QLDQAYRVGDLWKQSIA, HGSMRVQ, QCYERLPLS.
0.37, 0.25, 0.22, 0.13, 0.50, 0.18 (mean 0.27): KVSQSVLTESRNKNSVA, RASTRES, QQYMRLPLS.
nd, 2.94, 2.11, 2.57, 4.18, 2.65 (mean 2.89): KVSQSKEYESRQKNSVA, NASTREL, QQYHRLPLS.
0.35, 0.40, 0.32, 0.20, 0.37, 0.39 (mean 0.34): NLMSGGSELSVWSRNIA, SANIRES, QQYFRLPLL.
1.69, 0.47, 1.03, 0.16, 0.37, 0.90 (mean 0.77): MFSQLTYTGSRTRNAVA, QASTREN, QQYHRLPLS.
0.14, 0.06, 0.03, 0.33, 0.04, 0.21 (mean 0.14): KLEDSNSWHLRGTSAVA, QASTRAA, QQYQRLPLL.
nd, nd, nd, nd, nd, nd: KSSQSFLYESRNKNSVA, GASTRES, QDYHRLTLS.
0.30, 0.29, 0.22, 0.16, -0.14, 0.09 (mean 0.15): HSSPSVAYESRNKNSVA, QASTRES, QQYHRLPLS.
0.35, -0.03, 0.41, 0.33, 0.00, 0.42 (mean 0.25): KLSQVQLYESRNKNSVA, GASTRES, QQYHRLPLS.
0.37, 0.10, 0.04, 0.02, -0.01, 0.19 (mean 0.12): KVLWSVLYESNNKNSVA, HASTRED, QQYHRLPLS.
1.32, 1.19, 1.25, 0.98, 1.72, 1.48 (mean 1.32): KSPQSNTKESYNKNSVA, WASTRED, QQYHRLPLS.
-0.65, -0.60, -0.39, 0.04, -0.42, -0.44 (mean -0.41): KSSQNVLTESRNTNSVA, NADTRES, QQYERLPLS.
0.83, 1.10, 0.76, 1.39, 1.55, 1.25 (mean 1.15): MISNLMNMGQFAINSVA, QASIRNE, QQYDRLPLA.
-0.11, -0.30, -0.27, -0.23, -0.36, -0.14 (mean -0.24): HLSQSVPYESRNKNSVA, NASTREE, QQYHRLPLS.
0.75, 1.57, 1.15, 1.16, 0.69, 0.98 (mean 1.05): RIQEQYQWPDNAGQNVA, EIQTAID, QQYAHLPLS.
2.21, 1.64, 1.64, 1.86, 1.78, 2.95 (mean 2.01): KLSATYRFESQNKSNIA, EMTMRES, QCYHRLPLS.
0.08, 0.16, 0.03, -0.21, 0.08, 0.88 (mean 0.17): KLGMTLNAEMMKKNNVA, DLVYREN, QQYHRLPLS.
1.54, 1.21, 0.59, 1.06, 2.87, 0.99 (mean 1.38): KWSQLVGEESRNKSSVA, NASTREE, QQYHRLPLS.

Again, the first 4 entries without any signal:

CDR-L1	CDR-L2	CDR-L3	log10 Kd, replicates	mean log10 Kd (nM)
KSSQSVLYESRNKNSVA	WASDRES	QQYHRLPLS	nd, nd, nd, nd, nd, nd	nd
KLMMFMQEIGCMKNNIA	NLEMGAR	QQYAQLPLV	nd, nd, nd, nd, nd, nd	nd
KSSQSVLAESVNKNSVA	WASTRES	QQYHRLHLS	nd, nd, nd, nd, nd, nd	nd
KSSQSFLYESRNKNSVA	GASTRES	QDYHRLTLS	nd, nd, nd, nd, nd, nd	nd

Of ten entries with the parent sequence, four were seen in most replicates (averages 0.34 to 2.37), three in one and three in none, so single entries are noisy. A sequence measured in both rounds can read differently, since the two assays cover different ranges. In the paper, a design with two or fewer of six values counts as a poor binder. Three control strains display no target. For all light chain designs, 4% of the pairings with them gave a signal, with a median of 2.64 and one signal in twenty below 1.59, so weak values seen in few replicates may be background.